Results on 1 compound are retold here after US9034303B2, “Neuroprotective and neuro-restorative iron chelators and monoamine oxidase inhibitors and uses thereof” (priority 2010, dated 2015).

By UniProt entry, the sequences of proteins in these tests, tags left out.
UniProt P21396, whole entry: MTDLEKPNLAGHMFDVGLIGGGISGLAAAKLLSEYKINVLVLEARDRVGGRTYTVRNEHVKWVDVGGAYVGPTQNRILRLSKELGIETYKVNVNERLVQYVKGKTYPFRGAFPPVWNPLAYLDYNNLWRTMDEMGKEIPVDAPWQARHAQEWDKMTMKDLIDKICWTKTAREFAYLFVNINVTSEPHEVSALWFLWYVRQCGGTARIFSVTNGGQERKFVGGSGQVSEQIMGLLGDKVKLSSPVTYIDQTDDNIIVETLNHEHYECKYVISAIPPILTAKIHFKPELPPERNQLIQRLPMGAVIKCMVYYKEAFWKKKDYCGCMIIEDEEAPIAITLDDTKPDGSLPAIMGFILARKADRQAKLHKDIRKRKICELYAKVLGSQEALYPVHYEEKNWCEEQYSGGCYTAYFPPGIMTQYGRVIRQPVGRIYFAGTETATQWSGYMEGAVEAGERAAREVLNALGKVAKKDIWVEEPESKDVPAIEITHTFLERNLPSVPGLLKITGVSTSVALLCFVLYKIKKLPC
UniProt P19643, whole entry: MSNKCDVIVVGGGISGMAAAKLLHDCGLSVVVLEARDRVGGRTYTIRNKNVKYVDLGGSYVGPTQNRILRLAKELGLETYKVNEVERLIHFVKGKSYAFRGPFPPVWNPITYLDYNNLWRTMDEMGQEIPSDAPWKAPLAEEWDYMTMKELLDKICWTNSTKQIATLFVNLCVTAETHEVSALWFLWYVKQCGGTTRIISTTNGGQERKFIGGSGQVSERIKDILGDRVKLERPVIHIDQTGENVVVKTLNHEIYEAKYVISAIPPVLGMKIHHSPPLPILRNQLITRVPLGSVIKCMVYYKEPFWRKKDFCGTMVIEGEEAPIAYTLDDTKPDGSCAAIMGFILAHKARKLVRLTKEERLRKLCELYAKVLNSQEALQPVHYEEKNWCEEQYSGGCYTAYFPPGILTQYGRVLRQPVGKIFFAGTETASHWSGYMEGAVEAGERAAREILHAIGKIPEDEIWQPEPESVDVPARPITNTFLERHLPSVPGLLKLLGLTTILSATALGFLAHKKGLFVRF

For one assay, the target named is rat brain MAO-A (Rattus norvegicus (Rat), UniProt P21396). Put plainly: In vitro inhibition of rat brain MAO-A (14C-5-HT substrate). The format is biochemical. Particulars: for Inhibition of brain MAO-A (%): rat brain extracts. The procedure:
Rats are decapitated and the brains quickly taken into a weighted ice-cold sucrose buffer (0.32 M) and their weights determined. All subsequent procedures are performed at 0° C. The brains are homogenized in 0.32 M sucrose (one part tissue to 20 parts sucrose) in a Teflon glass homogenizer followed by the addition of sucrose buffer to a final concentration of 10% homogenate. The homogenates are centrifuged at 600 g for 15 min. The supernatant fractions are taken out and centrifuged at 4500 g for 30 min, the pellet diluted in 0.32 M sucrose buffer and kept frozen for later assaying of MAO. Protein concentration is determined with Bradford reagent at λ=595 nm, using BSA as a standard.
(§1) MAO-A and MAO-B activities are determined in rat brain homogenate in vitro following incubation with varying concentrations of the test compounds.
The activity of MAO-A and MAO-B was determined by the adapted method of Tipton & Youdim (Tipton K F, O'Sullivan J, Youdim M B, 1983, Encyclopedia of Neuroscience, 2004, G. Adelman and B. H. Smith, Elsevier). The test compound was added to a suitable dilution of the enzyme preparation (70 μg protein for MAO-B and 150 μg MAO-A assay) in 0.1 M phosphate buffer (pH 7.4). The mixture was incubated together with […], a specific inhibitor of MAO-B (for determination of MAO-A) or 0.05 M clorgylin, a specific inhibitor of MAO-A (for determination of MAO-B). Incubation was carried for 0.5 or 1 h at 37° C. before addition of ^14C-5-hydroxytryptamine binoxalate (5-HT) (100 or 400 μM) for determination of MAO-A, or ^14C-phenylethylamine (^14C-PEA) 100 or 400 μM for determination of MAO-B, and incubation continued for 30 min or 20 min, respectively. The reaction was stopped with 2 M ice-cold citric acid, and the metabolites were extracted and determined by liquid-scintillation counting in cpm units. […]
MAO-A and MAO-B activity was measured using radioactive substrates. The substrate for MAO-A was 5 HT and for MAO-B was PEA. […] The metabolites were extracted to toluene and read in a β-counter. […]

Another assay concerns the target rat brain MAO-B (Rattus norvegicus (Rat), UniProt P19643). The experiment in a line: In vitro inhibition of rat brain MAO-B (14C-PEA substrate). The following applies: for Inhibition of brain MAO-B (%): rat brain extracts. It is filed as biochemical. The procedure:
Rats are decapitated and the brains quickly taken into a weighted ice-cold sucrose buffer (0.32 M) and their weights determined. All subsequent procedures are performed at 0° C. The brains are homogenized in 0.32 M sucrose (one part tissue to 20 parts sucrose) in a Teflon glass homogenizer followed by the addition of sucrose buffer to a final concentration of 10% homogenate. The homogenates are centrifuged at 600 g for 15 min. The supernatant fractions are taken out and centrifuged at 4500 g for 30 min, the pellet diluted in 0.32 M sucrose buffer and kept frozen for later assaying of MAO.
as §1
The in vitro inhibitory activity of the compounds is tested against rat brain MAO-B. The test compounds are added to buffer containing 10^−7 M clorgylin and are incubated with the tissue homogenate for 30 or 60 min at 37° C. before addition of ^14C-PEA.
The test compound was added to a suitable dilution of the enzyme preparation (70 μg protein for MAO-B and 150 μg MAO-A assay) in 0.1 M phosphate buffer (pH 7.4). The mixture was incubated together with […], a specific inhibitor of MAO-B (for determination of MAO-A) or 0.05 M clorgylin, a specific inhibitor of MAO-A (for determination of MAO-B). […] The reaction was stopped with 2 M ice-cold citric acid, and the metabolites were extracted and determined by liquid-scintillation counting in cpm units.
The reaction was stopped with 2 M ice-cold citric acid, and the metabolites were extracted with ethyl acetate and levels of radioactivity were determined by liquid-scintillation counting in CPM units. All assays were performed at least in duplicate and outcome was expressed as a mean±SEM. Data were analyzed by a Student's t test. […]
MAO-A and MAO-B activity was measured using radioactive substrates. […] The metabolites were extracted to toluene and read in a β-counter. […]

Consider `C#CCN[C@@H]1CCc2ccccc21` [Rasagiline, reference compound], for which the “Inhibition of brain MAO-A (%)” value at rat brain MAO-A (concentration 0.001 mM) worked out at 47.4%; at rat brain MAO-A (concentration 1.0 mM), 99.8%. Also, the “Inhibition of rat brain MAO-A in vitro (in words)” value on rat brain MAO-A (rat brain) is “MAO-A more poorly”. Besides, the entries for the “Inhibition of brain MAO-B (%)” value at rat brain MAO-B (concentration 0.001 mM) and on rat brain MAO-B (concentration 1.0 mM) were 99.5% and 99.7%, respectively. Also, the “Inhibition of rat brain MAO-B in vitro (in words)” value on rat brain MAO-B (rat brain) is “inhibits MAO-B very strongly”.
